Assay results taken from patent US7109245B2, “Vasoconstrictor cannabinoid analogs” (priority 2001, dated 2006).

Tested on: mesenteric branch arteries isolated from wild-type and CB1 receptor deficient mice
Assay: Calcium-induced relaxation of mouse isolated mesenteric branch arteries precontracted with norepinephrine
Settings: SR141716A; wild-type and CB1 knockout mice; 5 μM norepinephrine precontraction

SMILES: Cc1c(C(=O)NN2CCCCC2)nn(-c2ccc(Cl)cc2Cl)c1-c1ccc(Cl)cc1 [SR141716A]
- inhibition of calcium-induced relaxation: concentration-dependent inhibition of calcium-induced relaxation
